Measured values reported in PMC9308496 (Journal of medicinal chemistry, 2021).

By UniProt entry, the sequences of proteins in these tests, tags left out.
UniProt P21917, whole entry: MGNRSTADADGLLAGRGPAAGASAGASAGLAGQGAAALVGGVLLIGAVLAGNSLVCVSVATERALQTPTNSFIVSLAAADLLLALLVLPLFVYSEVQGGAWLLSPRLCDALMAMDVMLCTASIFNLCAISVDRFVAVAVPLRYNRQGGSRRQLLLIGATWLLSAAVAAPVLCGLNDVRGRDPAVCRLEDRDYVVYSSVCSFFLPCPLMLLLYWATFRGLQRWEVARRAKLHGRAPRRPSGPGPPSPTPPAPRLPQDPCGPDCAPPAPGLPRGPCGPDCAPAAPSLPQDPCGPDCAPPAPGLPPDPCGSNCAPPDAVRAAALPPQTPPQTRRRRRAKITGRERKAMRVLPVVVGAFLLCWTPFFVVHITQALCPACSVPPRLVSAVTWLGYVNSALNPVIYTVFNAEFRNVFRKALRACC
UniProt P42866, whole entry: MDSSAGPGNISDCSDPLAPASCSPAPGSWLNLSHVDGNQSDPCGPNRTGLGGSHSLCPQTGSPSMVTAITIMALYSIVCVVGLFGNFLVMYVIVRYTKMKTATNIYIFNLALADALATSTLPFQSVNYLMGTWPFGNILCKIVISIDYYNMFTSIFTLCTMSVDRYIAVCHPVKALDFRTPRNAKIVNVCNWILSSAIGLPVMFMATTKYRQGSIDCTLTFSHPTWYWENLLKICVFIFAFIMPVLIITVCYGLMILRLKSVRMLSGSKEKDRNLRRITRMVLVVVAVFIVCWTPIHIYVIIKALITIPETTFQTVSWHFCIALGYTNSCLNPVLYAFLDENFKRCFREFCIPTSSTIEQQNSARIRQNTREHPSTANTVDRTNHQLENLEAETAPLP

Legend:
hD4R (human D4.4) = hD4R (human D4.4) (Homo sapiens, UniProt P21917); format: binding
MOR (SNAP-mMOR) = MOR (SNAP-mMOR) (Mus musculus, UniProt P42866); assay: BRET MOR-mediated Gαi2 protein activation; format: cell-based; conditions: read-out: MOR Gi2 activation EC50 (in brackets), HEK 293T

| Structure (SMILES) | selectivity over D4R (hD4R (human D4.4)) [fold] | EC50 (MOR (SNAP-mMOR)) [nM] |
| --- | --- | --- |
| CCC(=O)C(CC(C)N(C)C)(c1ccccc1)c1ccccc1 (centres unmarked) [compound 6, methadone] | > 10 |  |
| CN(C)C(=O)C(CCNCCCCN1CCN(c2cccc(Cl)c2Cl)CC1)(c1ccccc1)c1ccccc1 [compound 28, 4-((4-(4-(2,3-Dichlorophenyl)piperazin-1-yl)butyl)amino)-N,N-dimethyl-2,2-diphenylbutanamide] |  | 1110 |
